From patent US20210062146A1, “OPTIMIZED IN VITRO CELLULAR SYSTEM FOR BBB PERMEABILITY LINKED NEUROACTIVITY SCREENING” (priority 2019, published 2021)

System: SH-SY5Y neurons
Assay: BBB permeability linked neuroactivity (Neurite Outgrowth Staining Kit)
Conditions: 50 μM initial apical concentration, 3 hour permeation, n=4

## NC(=O)N1c2ccccc2C=Cc2ccccc21 [carbamazepine]
  neurite outgrowth, percent of control NVU SH-SY5Y cells with vehicle: 96±9%
